{"source": "published antibiotic growth screens (doi:10.1038/s41589-023-01349-8)", "note": "Some of the results follow."}
{"test_system": "A. baumannii ATCC 17978", "test": "relative growth (fraction of control); higher = less inhibition", "settings": "50 µM"}
{"smiles": "CCCN1C[C@@H](C)[C@H](OC)CN(C)C(=O)c2cc(NS(=O)(=O)c3cn(C)cn3)ccc2OC[C@@H]1C", "relative growth": 0.84}
{"smiles": "COc1cccc(-n2cc(C(=O)NO)nn2)c1", "relative growth": 1.06}
{"smiles": "Cl.Clc1ccccc1CN1CCc2sccc2C1", "relative growth": 1.19}
{"smiles": "COc1cccc([C@@H](N)c2ccccc2)c1", "relative growth": 0.966}
{"smiles": "C[C@@H]1CN([C@@H](C)CO)S(=O)(=O)c2ccc(C#CC(C)(C)O)cc2O[C@H]1CN(C)Cc1ccncc1", "relative growth": 0.919}
{"smiles": "Cc1noc(C)c1NC(=O)N[C@@H]1CC[C@H](CC(=O)NCCCN(C)C)O[C@@H]1CO", "relative growth": 1.11}
{"smiles": "CCCCCCOc1ccccc1C(N)=O", "relative growth": 0.893}
{"smiles": "CN1CCN(C(=O)C[C@@H]2CC[C@@H](NC(=O)c3ccc4c(c3)OCO4)[C@H](CO)O2)CC1", "relative growth": 0.732}
{"smiles": "Cn1cnc(S(=O)(=O)N[C@H]2C=C[C@H](CC(=O)Nc3ccccc3)O[C@H]2CO)c1", "relative growth": 1.05}
{"smiles": "CC(C)(S)[C@H](N)C(=O)O.NCCO", "relative growth": 1.33}
{"smiles": "C[C@@H]1COC(=O)[C@H](Cc2ccc(F)cc2)CC=CC[C@@H](CC(=O)N[C@@H](CO)Cc2ccccc2)C(=O)N1", "relative growth": 0.778}
{"smiles": "COc1cc2c(cc1OC)CN(C(=O)[C@H]1[C@@H]3C(=O)O[C@@H](c4ccccc4)[C@@H](c4ccccc4)N3[C@@H](c3ccc(O)cc3)[C@]13C(=O)Nc1ccc(C#CC4(O)CCCCCC4)cc13)CC2", "relative growth": 0.994}
{"smiles": "C[C@H](NC(=O)C[C@H]1CC[C@H](NC(=O)CN2CCOCC2)[C@@H](CO)O1)c1ccccc1", "relative growth": 1.01}
{"smiles": "C[C@H](CO)N1C[C@H](C)[C@@H](CN(C)Cc2ccccc2)Oc2cc(C#CC(C)(C)O)ccc2S1(=O)=O", "relative growth": 0.678}
{"smiles": "O=c1[nH][nH]c(=S)n1C1CC1", "relative growth": 0.821}
{"smiles": "C[C@@H]1CN([C@H](C)CO)S(=O)(=O)c2ccc(C#Cc3ccccc3)cc2O[C@H]1CN(C)S(=O)(=O)c1ccccc1F", "relative growth": 1.03}
{"smiles": "O=C(O)CCSc1n[nH]c(=O)[nH]c1=O", "relative growth": 1.1}
{"smiles": "O=C(C[C@H]1CC[C@@H]2[C@H](COC[C@H](O)CN2S(=O)(=O)c2ccc(Cl)cc2)O1)NCCN1CCCC1", "relative growth": 0.872}
{"smiles": "COC(=O)[C@H](Cc1ccccc1)N1CC2=C[C@@H]([C@@H](O)CCn3cc(-c4ccc(C(=O)NO)s4)nn3)n3c(=O)n(C)c(=O)n3[C@@H]2[C@@H](C2CC2)O1", "relative growth": 1.29}
{"smiles": "O=C(C[C@H]1CC[C@H](NC(=O)c2cnccn2)[C@@H](CO)O1)NCc1ccccc1F", "relative growth": 1.04}
{"smiles": "CO[C@H](CCO)[C@H](O)c1ccc(O)c(F)c1", "relative growth": 1.04}
{"smiles": "Cl.c1ccc(C2CN3CCSC3=N2)cc1", "note": "(centres undefined)", "relative growth": 0.936}
{"smiles": "NC(=O)c1cc2ccccc2o/c1=N\\O", "relative growth": 0.473}
{"smiles": "CC[C@H]1OC(=O)[C@H](C)[C@@H](O[C@H]2C[C@@](C)(OC)[C@@H](O)[C@H](C)O2)[C@H](C)[C@@H](O[C@@H]2O[C@H](C)C[C@H](N(C)C)[C@H]2O)[C@](C)(O)C[C@@H](C)CN(C)[C@H](C)[C@@H](O)[C@]1(C)O", "relative growth": 0.146}
{"smiles": "O=C(O)/C=C/C(=O)NCc1ccccc1", "relative growth": 1.17}
{"smiles": "C=C1C(c2ccc(C)cc2)=CCc2cc(C)cc(C)c21", "relative growth": 0.904}
{"smiles": "C/C=C/c1ccc2c(c1)O[C@@H](CN(C)S(=O)(=O)c1ccccc1OC)[C@H](C)CN([C@@H](C)CO)S2(=O)=O", "relative growth": 0.997}
{"smiles": "Cn1c(=O)c2c(nc(Sc3nnc(N)s3)n2C)n(C)c1=O", "relative growth": 1.06}
{"smiles": "CN[C@H]1CC[C@@H](c2ccc(Cl)c(Cl)c2)c2ccccc21", "relative growth": 0.208}
{"smiles": "COc1ccccc1C#Cc1ccc2c(c1)O[C@@H](CN(C)C(C)=O)[C@@H](C)CN([C@@H](C)CO)S2(=O)=O", "relative growth": 0.796}
{"smiles": "CO[C@@H]1[C@@H](O[C@@H]2O[C@H](C)C(O[C@H]3C[C@@](C)(O)[C@@H](OC(=O)CC(C)C)[C@H](C)O3)[C@H](N(C)C)[C@H]2O)[C@@H](CC=O)C[C@@H](C)[C@@H](O)/C=C/C=C/C[C@@H](C)OC(=O)C[C@H]1O", "note": "(some centres undefined) [KITASAMYCINS [A1 shown]]", "relative growth": 0.153}
{"smiles": "C[C@@H]1NC(=O)[C@@H]2CCCN2C(=O)[C@H](CC(N)=O)NC(=O)[C@@H]2CSSC[C@H](N)C(=O)N[C@H]3CSSC[C@H](NC1=O)C(=O)N[C@@H]([C@@H](C)O)C(=O)NCC(=O)N[C@H](C(=O)N[C@@H](Cc1ccc(O)cc1)C(=O)O)CSSC[C@H](NC(=O)[C@H](Cc1ccc(O)cc1)NC(=O)[C@H](CCC(=O)O)NC3=O)C(=O)N2", "relative growth": 0.959}
{"smiles": "Nc1ccc(S(=O)(=O)Nc2nccs2)cc1", "relative growth": 0.968}
{"smiles": "CC(C)CNC(=O)C[C@H]1NCCNC1=O", "relative growth": 0.939}
{"smiles": "C=C1C(C2(C)C=CC(=O)C(C)(C)C2CC(=O)OC)CC[C@@]2(C)[C@H](c3ccoc3)OC(=O)C3OC132", "note": "(some centres undefined)", "relative growth": 1.01}
{"smiles": "CN(C)Cc1cn(CC[C@@H]2CC[C@H](NC(=O)Cc3cccnc3)[C@H](CO)O2)nn1", "relative growth": 1.04}
{"smiles": "CCCCCCCCCCCC[C@H](C(=O)O)[C@@H](C)C(=O)O", "relative growth": 1.1}
{"smiles": "Cc1ccc(-c2cc(C(F)(F)F)nn2-c2ccc(S(N)(=O)=O)cc2)cc1", "relative growth": 0.886}
{"smiles": "O=C1c2ccccc2C(=O)c2c(O)c(O)cc(O)c21", "relative growth": 1.06}
{"smiles": "COc1ccc(OC)c(CCNC(=O)CN)c1", "relative growth": 1.21}
{"smiles": "NC(=O)c1cc2ccccc2nc1C(N)=O", "relative growth": 1.03}
{"smiles": "Nc1ccc(-n2cnnn2)cc1", "relative growth": 0.948}
{"smiles": "CCCNC(=O)[C@@H]1c2ccccc2C(=O)N(Cc2cc(C(F)(F)F)cc(C(F)(F)F)c2)[C@H]1c1ccc(CO)cc1", "relative growth": 0.897}
{"smiles": "CSc1n[nH]c2nc(=O)cc(N)n12", "relative growth": 1}
{"smiles": "O=C(C[C@H]1CC[C@@H]2[C@H](COC[C@H](O)CN2C(=O)c2ccc3c(c2)OCO3)O1)NC1Cc2ccccc2C1", "relative growth": 1.01}
{"smiles": "CNC(=N)NCCC[C@@H](N)C(=O)O", "relative growth": 1.04}
{"smiles": "CCOC(=O)C1=C(N)C(=O)N(CCCN2CCOCC2)C1", "relative growth": 1.21}
{"smiles": "O=C(CN1CCOCC1)N[C@H]1CC[C@H](CCNC(=O)C2CCC2)O[C@@H]1CO", "relative growth": 1.18}
{"smiles": "COC(=O)c1c(OC)cc2c(c1C)Oc1c(Cl)c(O)c(Cl)c(C)c1C(=O)O2", "relative growth": 1.19}
{"smiles": "O=C(C[C@H]1CC[C@H]2[C@@H](COC[C@@H](O)CN2C(=O)Nc2cccc(F)c2)O1)NCc1ccccc1Cl", "relative growth": 0.999}
{"smiles": "Cc1ccc(S[C@]2(C(=O)NC3CC3)CC(=O)N(C3Cc4ccccc4C3)[C@@H]2c2ccc(CO)cc2I)cc1", "relative growth": 0.991}
{"smiles": "C[C@@H]1CN([C@H](C)CO)S(=O)(=O)c2ccc(-c3ccccc3F)cc2O[C@@H]1CN(C)S(C)(=O)=O", "relative growth": 0.983}
{"smiles": "CC(C)NC(=O)N[C@@H]1C=C[C@@H](CC(=O)O)O[C@@H]1CO", "relative growth": 1.01}
{"smiles": "COc1cc(CNC(=O)CCCC/C=C/C(C)C)ccc1O", "relative growth": 0.732}
{"smiles": "O=C(NCCCN1CCOCC1)c1ccc(Cl)cc1", "relative growth": 1.1}
{"smiles": "CC(C)N1C(=O)C[C@@](C(=O)NCCN2CCOCC2)(c2ccc([N+](=O)[O-])cc2)[C@H]1c1ccc(CO)cc1", "relative growth": 0.984}
{"smiles": "Cl.NC1CCN(c2c(F)cc3c(=O)c(C(=O)O)cn(C4CC4)c3c2Cl)C1", "note": "(centres undefined)", "relative growth": 0.145}
{"smiles": "O=C(O)c1c2ccccc2cc2ccccc12", "relative growth": 1.11}
{"smiles": "c1ccc(-c2nc3ccccc3o2)cc1", "relative growth": 1.01}
{"smiles": "C=C1O[C@@](CO)(n2cnc3c(N)ncnc32)[C@H](O)[C@@H]1O", "relative growth": 0.288}
{"smiles": "C=CCN1C(=O)[C@@]2(O[C@@H](CCO)[C@H]([Si](C)(C)F)[C@H]2C)c2cc(N3C(=O)c4cccc5cccc3c45)ccc21", "relative growth": 0.967}
{"smiles": "COc1ccccc1S(=O)(=O)N[C@H]1CC[C@H](CCNC(=O)C2CC2)O[C@@H]1CO", "relative growth": 1.08}
{"smiles": "COC(=O)[C@H](Cc1ccccc1)NC(=O)[C@@H](N)CC(=O)O", "relative growth": 0.894}
{"smiles": "O=c1cc(-c2ccccc2)ss1", "relative growth": 1.06}
{"smiles": "O=C(C[C@H]1C[C@H]2c3cc(NS(=O)(=O)c4ccc(F)cc4)ccc3O[C@H]2[C@H](CO)O1)NCc1ccccn1", "relative growth": 1.03}
{"smiles": "CC(=O)OC[C@H]1O[C@H](n2ccc(=O)[nH]c2=O)[C@@H](OC(C)=O)[C@@H]1OC(C)=O", "relative growth": 1.06}
{"smiles": "CO[C@H]1C[C@@H](O[C@@H](O)[C@@H](O)[C@@H](O)[C@@H](O)[C@@H](O)CO)c2c(cc3cc(C)oc(=O)c3c2O)OC1=O", "relative growth": 0.98}
{"smiles": "O=C(C[C@@H]1C[C@@H]2c3cc(NS(=O)(=O)c4ccc(F)cc4)ccc3O[C@@H]2[C@@H](CO)O1)NCc1ccccc1F", "relative growth": 1.23}
{"smiles": "C[C@@H]1CN([C@@H](C)CO)S(=O)(=O)c2ccc(C3=CCCC3)cc2O[C@H]1CN(C)S(=O)(=O)c1cn(C)cn1", "relative growth": 1.04}
{"smiles": "COCC#Cc1cnc2c(c1)C(=O)N([C@H](C)CO)C[C@H](C)[C@@H](CN(C)C(=O)CCN1CCCCC1)O2", "relative growth": 1.12}
{"smiles": "COc1cc(O)c2c(=O)cc(C)oc2c1CC=C(C)C", "relative growth": 0.857}
{"smiles": "Cc1c(C)n2c3c(=O)[nH]c(=O)n(C)c3nc2n1C", "relative growth": 1.12}
{"smiles": "O=C(C[C@@H]1C[C@@H]2c3cc(NS(=O)(=O)c4ccc(F)cc4)ccc3O[C@@H]2[C@H](CO)O1)NCCc1ccccc1", "relative growth": 1.08}
{"smiles": "COc1oc(C(=O)NC2CCCCC2)c(-c2ccc(Cl)cc2)c1S(=O)(=O)c1ccc(Br)cc1", "relative growth": 1.11}
{"smiles": "Cc1nc2n(c(=O)c1CCN1CCC(c3noc4cc(F)ccc34)CC1)CCC[C@H]2O", "relative growth": 1.09}
{"smiles": "COc1cc([C@H]2Oc3cc([C@H]4Oc5cc(O)cc(O)c5C(=O)[C@@H]4O)ccc3O[C@@H]2CO)ccc1O", "relative growth": 1.01}
{"smiles": "O=C(O)CNC(=O)c1cc2ccccc2[nH]1", "relative growth": 1.05}
{"smiles": "COc1ccc(NC(=O)Cn2c(=O)c3c(OC)ccnc3n(C)c2=O)c(OC)c1", "relative growth": 0.846}
{"smiles": "C[C@@H]1CN([C@H](C)CO)S(=O)(=O)c2ccc(C#CCN(C)C)cc2O[C@@H]1CN(C)C", "relative growth": 0.917}
{"smiles": "O=C1C=C2C[C@@]3(O)COc4cc(O)ccc4C3=C2C=C1O", "relative growth": 1.67}
{"smiles": "COc1cccc(CNC(=O)C[C@@H]2C=C[C@H](NC(=O)C3CCOCC3)[C@H](CO)O2)c1", "relative growth": 0.968}
{"smiles": "COC1=CC(=O)C(O)=C/C1=C\\C=C\\c1ccccc1", "relative growth": 1.05}
{"smiles": "CCn1nnc(NC(=O)Cc2ccccc2)n1", "relative growth": 0.983}
{"smiles": "CC(C)Oc1ccc2c(=O)c(-c3ccccc3)coc2c1", "relative growth": 1.15}
